Target: matrix metalloproteinase-9 (Homo sapiens, UniProt P14780)
Assay: Inhibition test of matrix metalloproteinase-9 activity (fluorogenic substrate, activated pro-MMP-9)
Settings: Table 5, BocHis sample, concentration not given

The chains behind the UniProt entries cited, without tags or fusion partners. Residues count along the entry.
UniProt P14780, 107-707 limits assumed, species assumed: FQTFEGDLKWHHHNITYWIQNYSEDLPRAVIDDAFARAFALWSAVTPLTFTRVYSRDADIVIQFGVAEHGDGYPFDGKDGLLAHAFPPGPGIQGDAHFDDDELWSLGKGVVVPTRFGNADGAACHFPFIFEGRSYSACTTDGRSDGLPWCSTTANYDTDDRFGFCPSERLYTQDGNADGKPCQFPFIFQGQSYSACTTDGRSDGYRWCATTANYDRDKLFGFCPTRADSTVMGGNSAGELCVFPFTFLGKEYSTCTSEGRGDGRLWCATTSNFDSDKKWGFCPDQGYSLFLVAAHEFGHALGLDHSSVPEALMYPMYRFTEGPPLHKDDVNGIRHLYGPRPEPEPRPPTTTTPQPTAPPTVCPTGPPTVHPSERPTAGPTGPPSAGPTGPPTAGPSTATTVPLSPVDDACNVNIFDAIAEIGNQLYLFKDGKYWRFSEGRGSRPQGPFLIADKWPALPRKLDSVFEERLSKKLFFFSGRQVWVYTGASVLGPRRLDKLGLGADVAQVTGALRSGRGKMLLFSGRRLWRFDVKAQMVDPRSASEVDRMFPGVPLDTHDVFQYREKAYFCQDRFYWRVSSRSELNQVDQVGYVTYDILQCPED

Matrix metalloproteinase-9 inhibitory rate (%): 81.05%
Structure (SMILES): CC(C)(C)OC(=O)N[C@@H](Cc1c[nH]cn1)C(=O)O [BocHis, Boc-histidine]

Source: US20160113905A1, “Polymer composition and polymer material” (INDUSTRIAL TECHNOLOGY RESEARCH INSTITUTE, priority 2012, published 2016)
